The record followed here is ChEMBL document CHEMBL4610086, “N-Acylethanolamine Acid Amidase (NAAA): Structure, Function, and Inhibition” (J Med Chem, 2020).

Structures are written as SMILES.

The assay has as its target T1, N-acylethanolamine-hydrolyzing acid amidase (Rattus norvegicus, UniProt Q5KTC7).
T1 sequence (Q5KTC7 whole entry): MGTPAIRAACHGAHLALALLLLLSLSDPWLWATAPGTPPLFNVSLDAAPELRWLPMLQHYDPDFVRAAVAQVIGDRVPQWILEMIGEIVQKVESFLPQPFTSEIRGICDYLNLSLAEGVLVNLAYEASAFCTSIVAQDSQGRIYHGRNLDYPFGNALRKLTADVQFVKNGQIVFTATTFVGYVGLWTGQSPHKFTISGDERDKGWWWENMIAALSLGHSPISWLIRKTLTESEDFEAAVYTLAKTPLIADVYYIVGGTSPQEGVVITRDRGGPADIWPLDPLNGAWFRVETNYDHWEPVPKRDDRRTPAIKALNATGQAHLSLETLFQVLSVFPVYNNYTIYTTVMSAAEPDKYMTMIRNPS
As to the kind of experiment: Inhibition of rat NAAA.

By IC50 is commonly meant the concentration at which inhibition is half-maximal. Consider `O=C(N[C@H]1CNC1=O)OCCCCC1CCCCC1`, for which the IC50 came to 13 nM.
